Source: patent US7687508B2, “Cyclic derivatives as modulators of chemokine receptor activity” (Bristol-Myers Squibb Company, priority 2006, dated 2010)

Test: Single-dose pharmacokinetics in rats
Type: in vivo, Sprague-Dawley rats
Conditions: rat, dose per compound (mg/kg), tested form: TFA

CC(C)N(C)[C@@H]1CC[C@H](N2CC[C@H](NC(=O)c3cccc(C(F)(F)F)c3)C2=O)[C@H](CS(C)(=O)=O)C1
Oral AUC: 0.69 µM·h
